Here are results for three compounds from patent publication US20070037752A1, “Novel alanyl-amino peptidase inhibitors for functionally influencing different cells and treating immunological, inflammatory, neuronal, and other diseases” (priority 2003, published 2007).

Protein sequences, listed by entry. Tags and fused reporters are not part of them. Lines headed by an entry give the natural chain unless they say otherwise; changes in a name come on top.
UniProt P15144: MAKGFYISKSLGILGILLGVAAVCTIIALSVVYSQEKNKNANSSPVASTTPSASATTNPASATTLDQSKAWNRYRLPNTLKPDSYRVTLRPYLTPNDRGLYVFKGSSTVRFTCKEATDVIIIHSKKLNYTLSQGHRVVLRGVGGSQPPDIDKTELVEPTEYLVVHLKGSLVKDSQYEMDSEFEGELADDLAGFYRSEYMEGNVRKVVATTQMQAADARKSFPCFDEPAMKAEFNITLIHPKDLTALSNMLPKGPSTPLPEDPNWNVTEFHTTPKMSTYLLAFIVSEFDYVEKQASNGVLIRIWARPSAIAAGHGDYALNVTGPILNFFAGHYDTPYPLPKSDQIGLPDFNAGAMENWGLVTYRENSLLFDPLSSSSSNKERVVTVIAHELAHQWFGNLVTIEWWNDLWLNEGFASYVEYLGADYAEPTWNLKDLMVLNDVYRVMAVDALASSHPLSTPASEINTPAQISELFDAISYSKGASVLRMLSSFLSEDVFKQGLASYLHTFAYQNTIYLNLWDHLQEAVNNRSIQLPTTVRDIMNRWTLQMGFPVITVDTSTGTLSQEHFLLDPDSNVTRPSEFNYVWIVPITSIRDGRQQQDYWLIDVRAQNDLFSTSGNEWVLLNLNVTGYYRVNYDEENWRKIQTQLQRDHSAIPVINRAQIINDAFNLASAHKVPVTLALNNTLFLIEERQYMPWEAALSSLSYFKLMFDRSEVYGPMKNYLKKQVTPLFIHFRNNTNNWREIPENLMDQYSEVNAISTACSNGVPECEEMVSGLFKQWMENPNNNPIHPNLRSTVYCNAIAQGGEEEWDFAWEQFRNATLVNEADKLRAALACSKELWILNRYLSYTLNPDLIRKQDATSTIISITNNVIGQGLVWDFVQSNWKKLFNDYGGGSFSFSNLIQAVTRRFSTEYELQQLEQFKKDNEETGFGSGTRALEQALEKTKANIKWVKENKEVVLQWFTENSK

Like-named read-outs stand apart in the source and are kept apart here.

The experiment addresses alanyl aminopeptidases (APN) (Homo sapiens, UniProt P15144). Description: Inhibition of alanyl aminopeptidase enzymatic activity, fluorogenic substrate (Ala)2-rhodamine 110. Type of experiment: biochemical. The following applies: read-out: IC50APN.

For the compound `O=C(NC(Sc1ncccn1)C(Cl)(Cl)Cl)c1ccccc1` (stereo not drawn), the IC50 runs as follows: (Table 9, unstarred values) 17.9 µM; (Table 12) 17.9 µM.
On to `Cn1nc([N+](=O)[O-])nc1-n1cc([N+](=O)[O-])cn1`, for which the IC50 runs as follows: (Table 3, unstarred values) 34.5 µM; (Table 8, unstarred values) 34.4 µM.
For `Cc1cc(N(C)C)cc[n+]1C(=O)N(C)C`, the IC50 runs as follows: (Table 8, unstarred values) 27.6 µM; (Table 9, unstarred values) 27.6 µM.
